Drawing on ChEMBL document CHEMBL1121477, “Noval antitumor nitrosoureas and related compounds and their reactions with DNA” (1980), this text covers Mean survival and T/C for 1 molecule.

For test [1], the system named is L1210. Kind of test: Antitumor activity against lymphoid leukemia L1210 cell implanted in mice was measured by mean survival of mice expressed as treated/control at a dosage of 20 mg/kg (11.3/7.1).
The test system of test [2] is L1210. Nature of the test: Antitumor activity against lymphoid leukemia L1210 cell implanted in mice was measured by %T/C at a dosage of 20 mg/kg.

Each structure is given as a SMILES string.

As to `N/C(=N\[N+](=O)[O-])N(CCCl)N=O`, the Mean survival in test [1] worked out at 11.3 time day-1. Also, the T/C in test [2] was determined as 159%.

In general, T/C refers to the ratio of treated to control.
